Results from patent US9453062B2, “Glucose dependent insulinotropic polypeptide analogs, pharmaceutical compositions and use thereof” (Beijing Hanmi Pharmaceutical Co., Ltd., priority 2011, dated 2016).

By UniProt entry, the sequences of proteins in these tests, tags left out. Residues count along the entry.
UniProt P43220, 24-463: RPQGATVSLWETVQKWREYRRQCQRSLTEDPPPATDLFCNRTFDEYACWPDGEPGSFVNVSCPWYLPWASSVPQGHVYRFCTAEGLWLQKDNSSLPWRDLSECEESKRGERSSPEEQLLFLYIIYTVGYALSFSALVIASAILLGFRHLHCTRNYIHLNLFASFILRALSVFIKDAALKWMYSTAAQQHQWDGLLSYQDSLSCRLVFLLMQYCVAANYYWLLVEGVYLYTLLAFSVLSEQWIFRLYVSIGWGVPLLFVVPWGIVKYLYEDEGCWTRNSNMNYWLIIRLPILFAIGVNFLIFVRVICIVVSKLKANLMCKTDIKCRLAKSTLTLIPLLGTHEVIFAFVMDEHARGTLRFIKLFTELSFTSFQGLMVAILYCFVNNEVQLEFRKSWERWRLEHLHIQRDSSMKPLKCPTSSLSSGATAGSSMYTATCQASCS

Molecular target: T1, hGLP-1R (Homo sapiens, UniProt P43220)
T1 construct: expressed in transfected cells; host or cells: CHO
Assay: hGLP-1R-mediated cAMP induction assay in CHO cell line;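 further: CHO cells expressing human GLP-1R, treated 30 min at 37 °C, intracellular cAMP measured by competitive fluorescent immunoassay and converted via a cAMP standard curve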
Format: cell-based
Settings: Table 3; against native GLP-1

Structure (SMILES): CC[C@H](C)[C@H](NC(=O)[C@H](CO)NC(=O)[C@H](Cc1ccc(O)cc1)NC(=O)[C@H](CC(=O)O)NC(=O)[C@H](CO)NC(=O)[C@@H](NC(=O)[C@H](Cc1ccccc1)NC(=O)[C@@H](NC(=O)CNC(=O)[C@H](CCC(=O)O)NC(=O)C(C)(C)NC(=O)[C@@H](N)Cc1ccc(O)cc1)[C@@H](C)O)[C@@H](C)O)C(=O)N[C@@H](Cc1ccc(O)cc1)C(=O)N[C@@H](CCSC)C(=O)N[C@@H](CCC(=O)O)C(=O)N[C@@H](CCCCN)C(=O)N[C@@H](CCC(=O)O)C(=O)N[C@@H](C)C(=O)N[C@H](C(=O)N[C@@H](CCCNC(=N)N)C(=O)N[C@@H](CCC(=O)O)C(=O)N[C@@H](Cc1ccccc1)C(=O)N[C@H](C(=O)N[C@@H](CS)C(=O)N[C@@H](Cc1c[nH]c2ccccc12)C(=O)N[C@@H](CC(C)C)C(=O)N[C@H](C(=O)N[C@@H](CCCCN)C(=O)NCC(=O)NCC(=O)N1CCC[C@H]1C(=O)N[C@@H](CO)C(=O)N[C@@H](CO)C(=O)NCC(=O)N[C@@H](C)C(=O)N1CCC[C@H]1C(=O)N1CCC[C@H]1C(=O)N1CCC[C@H]1C(=O)N[C@@H](CO)C(=O)N[C@@H](CCCCN)C(N)=O)C(C)C)[C@@H](C)CC)C(C)C [Compound 105]
- GLP-1 Receptor Relative Potency: 11.7
